Results from patent US8030543B2, “Efficient transformation method for sunflower and oil seeds based on positive selection” (Avesthagen Limited, priority 2006, dated 2011).

Tested on: Helianthus annuus CMS234B split embryonic axis (SEA) explants
Experiment: Negative selection and regeneration of sunflower SEA explants transformed with pCAMBIA-1301 on media containing Hygromycin
Conditions: for No of PCR +ve explants / No. of explants Regenerating into shootlets / No. of explants surviving I selection (15 days) / No. of explants surviving I selection (21 days) / No. of explants surviving II selection (15 days) / PCR +ve Regenerants: 100 explants infected, pCAMBIA-1301

CN[C@@H]1C[C@H](N)[C@@H](O)[C@H](O[C@H]2O[C@H](CO)[C@H](O)[C@@H]3O[C@@]4(O[C@@H]23)O[C@H]([C@H](N)CO)[C@H](O)[C@H](O)[C@H]4O)[C@H]1O
No of PCR +ve explants (Hygromycin 15 mg/l): 27
No. of explants Regenerating into shootlets (Hygromycin 15 mg/l): 7
No. of explants surviving I selection (15 days) (Hygromycin 15 mg/l): 65
No. of explants surviving I selection (21 days) (Hygromycin 15 mg/l): 50
No. of explants surviving II selection (15 days) (Hygromycin 15 mg/l): 43
PCR +ve Regenerants (Hygromycin 15 mg/l): 3
No of PCR +ve explants (Hygromycin 20 mg/l): 20
No. of explants Regenerating into shootlets (Hygromycin 20 mg/l): 5
No. of explants surviving I selection (15 days) (Hygromycin 20 mg/l): 58
No. of explants surviving I selection (21 days) (Hygromycin 20 mg/l): 42
No. of explants surviving II selection (15 days) (Hygromycin 20 mg/l): 28
PCR +ve Regenerants (Hygromycin 20 mg/l): 2
No of PCR +ve explants (Hygromycin 25 mg/l): 15
No. of explants Regenerating into shootlets (Hygromycin 25 mg/l): 3
No. of explants surviving I selection (15 days) (Hygromycin 25 mg/l): 50
No. of explants surviving I selection (21 days) (Hygromycin 25 mg/l): 30
No. of explants surviving II selection (15 days) (Hygromycin 25 mg/l): 17
PCR +ve Regenerants (Hygromycin 25 mg/l): 2
No of PCR +ve explants (Hygromycin 30 mg/l): 12
No. of explants Regenerating into shootlets (Hygromycin 30 mg/l): 1
No. of explants surviving I selection (15 days) (Hygromycin 30 mg/l): 45
No. of explants surviving I selection (21 days) (Hygromycin 30 mg/l): 22
No. of explants surviving II selection (15 days) (Hygromycin 30 mg/l): 12
PCR +ve Regenerants (Hygromycin 30 mg/l): 1
shoots per explants (clustered and stunted shoots on Hygromycin medium): 1-2
regeneration efficiency (even at low concentrations of Hygromycin): very low
appearance of buds put forth by explants (explants growing on Hygromycin media): stunted and hydric
toxic effect on the explants (transformed SEA explants, Hygromycin compared with Xylose selection, after 2 weeks of selection): greater toxic effect on the explants than Xylose
